Results reported in ChEMBL document CHEMBL4177633, “Novel analogs of PSNCBAM-1 as allosteric modulators of cannabinoid CB1 receptor” (Bioorg Med Chem, 2017).

Chains of the proteins cited; added tags and fusions are not shown.
UniProt P21554, whole entry: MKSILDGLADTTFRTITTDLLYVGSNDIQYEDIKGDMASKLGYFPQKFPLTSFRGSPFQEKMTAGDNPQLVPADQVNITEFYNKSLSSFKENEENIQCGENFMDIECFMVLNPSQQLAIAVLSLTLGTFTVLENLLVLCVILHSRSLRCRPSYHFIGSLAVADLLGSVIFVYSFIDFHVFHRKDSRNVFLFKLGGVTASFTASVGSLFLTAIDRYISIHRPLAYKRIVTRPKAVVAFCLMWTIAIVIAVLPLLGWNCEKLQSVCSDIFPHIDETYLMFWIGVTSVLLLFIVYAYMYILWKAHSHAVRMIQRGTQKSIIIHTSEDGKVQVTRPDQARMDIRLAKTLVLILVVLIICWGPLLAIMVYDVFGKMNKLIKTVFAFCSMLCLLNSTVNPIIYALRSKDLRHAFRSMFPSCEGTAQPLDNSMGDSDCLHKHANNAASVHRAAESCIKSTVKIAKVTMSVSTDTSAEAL

What was measured:
Cannabinoid receptor 1 [1] = target: T1, Cannabinoid receptor 1 (Homo sapiens, UniProt P21554); assay: Positive allosteric modulation of human CB1 receptor expressed in CHO-K1 cell membranes assessed as induction of [3H]CP55,940 binding after 1.5 hrs by liquid scintillation counting assay; assay type: functional
Cannabinoid receptor 1 [2] = target: T1, Cannabinoid receptor 1; assay: Negative allosteric modulation of human CB1 receptor expressed in HEK293 cells assessed as inhibition of 33 nM CP55,940-induced SRE transcriptional activity after 5 hrs by luciferase reporter gene assay; assay type: functional, cell-based
How it was run: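 HEK293 cells transiently co-transfected with hCB1R (5 ng/well) and pGL4.33 luc2P/SRE reporter (100 ng/well) by lipofection, seeded at 60,000 cells/well. After 5 h, switched to 1% FBS/DMEM overnight. Ligands added for 5 h at 37 °C in serum-free DMEM. Cells lysed 10 min at room temperature, luciferin injected, luminescence read. Sigmoidal nonlinear regression fit; mean with 95% CI, n = 3.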

pEC50 (Cannabinoid receptor 1 [1]): 6.57 | pIC50 (Cannabinoid receptor 1 [2]): 6.64
Structure (SMILES): O=C(Nc1ccc(Cl)cc1)Nc1cccc(-c2cccc(N3CCCC3)n2)c1

pEC50, pIC50: −log10 of the molar value.
